Measured values from ChEMBL document CHEMBL4414592, “Aryl-fluorosulfate-based Lysine Covalent Pan-Inhibitors of Apoptosis Protein (IAP) Antagonists with Cellular Efficacy” (J Med Chem, 2019).

Chains of the proteins cited; added tags and fusions are not shown.
UniProt Q13490, whole entry: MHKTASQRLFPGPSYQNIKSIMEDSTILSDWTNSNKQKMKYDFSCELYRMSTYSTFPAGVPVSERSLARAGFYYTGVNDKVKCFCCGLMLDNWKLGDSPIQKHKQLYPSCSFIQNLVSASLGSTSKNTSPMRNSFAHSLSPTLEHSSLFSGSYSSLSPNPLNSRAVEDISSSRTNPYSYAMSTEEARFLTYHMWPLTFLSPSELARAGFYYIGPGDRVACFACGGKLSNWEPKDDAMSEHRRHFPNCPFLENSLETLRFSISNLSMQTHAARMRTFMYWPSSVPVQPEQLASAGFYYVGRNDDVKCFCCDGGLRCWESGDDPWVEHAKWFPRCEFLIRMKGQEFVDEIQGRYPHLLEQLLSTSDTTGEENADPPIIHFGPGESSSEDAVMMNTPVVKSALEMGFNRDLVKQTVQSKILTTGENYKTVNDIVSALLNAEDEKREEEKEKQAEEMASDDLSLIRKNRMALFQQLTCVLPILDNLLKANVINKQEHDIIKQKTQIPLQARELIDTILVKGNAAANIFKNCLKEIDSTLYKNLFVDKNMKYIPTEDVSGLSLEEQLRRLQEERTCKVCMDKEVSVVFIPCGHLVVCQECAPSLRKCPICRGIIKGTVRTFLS

Columns and labels:
[1] = biological target: T1, Baculoviral IAP repeat-containing protein 2 (Homo sapiens, UniProt Q13490); assay: Inhibition of N-terminal 6x-His-tagged recombinant human cIAP1-BIR3 (258 to 363 residues) expressed in Escherichia coli incubated for 2 hrs without 6 hrs pre-incubation with enzyme by biotinylated AVPI peptide based DELFIA
[2] = biological target: T1, Baculoviral IAP repeat-containing protein 2; assay: Inhibition of N-terminal 6x-His-tagged recombinant human cIAP1-BIR3 (258 to 363 residues) expressed in Escherichia coli incubated for 2 hrs after 6 hrs pre-incubation with enzyme by biotinylated AVPI peptide based DELFIA

CN[C@@H](C)C(=O)N[C@@H](Cc1ccc(OS(=O)(=O)F)cc1)C(=O)N1CCC[C@H]1C(=O)N[C@@H]1CCc2c(F)cccc21
IC50 [1]: 24 nM | IC50 [2]: 20 nM

CN[C@@H](C)C(=O)N[C@H](C(=O)N1CCC[C@H]1C(=O)N[C@@H]1CCc2c(OS(=O)(=O)F)cccc21)C1CCCCC1
IC50 [1]: 25 nM

CN[C@@H](C)C(=O)NC(Cc1cc(C)c(C(F)(F)F)cc1F)C(=O)N1CCC[C@H]1C(=O)N[C@@H]1CCc2c(OS(=O)(=O)F)cccc21 (mixture of isomers)
IC50 [1]: 50 nM | IC50 [2]: 15 nM
